Sequences of proteins named here, by UniProt entry; tags and fusion partners are left off.
UniProt P35557, whole entry: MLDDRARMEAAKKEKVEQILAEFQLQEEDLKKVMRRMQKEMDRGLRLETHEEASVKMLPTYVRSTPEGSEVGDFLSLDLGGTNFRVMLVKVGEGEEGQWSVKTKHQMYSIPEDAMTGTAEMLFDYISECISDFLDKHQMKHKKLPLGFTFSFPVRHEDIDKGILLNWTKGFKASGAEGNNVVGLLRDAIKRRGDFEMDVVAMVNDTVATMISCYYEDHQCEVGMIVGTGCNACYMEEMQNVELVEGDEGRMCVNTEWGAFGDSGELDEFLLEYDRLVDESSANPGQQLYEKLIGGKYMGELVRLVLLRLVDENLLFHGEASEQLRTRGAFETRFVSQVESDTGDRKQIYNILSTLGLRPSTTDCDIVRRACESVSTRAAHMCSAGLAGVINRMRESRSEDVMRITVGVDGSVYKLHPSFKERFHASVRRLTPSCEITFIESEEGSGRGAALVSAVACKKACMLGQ

According to US7745475B2, “Heteroaryl benzamide derivatives as GLK activators” (AstraZeneca AB, priority 2004, dated 2010):

Molecular target: recombinant human pancreatic GLK (Homo sapiens, UniProt P35557)
Assay: Enzymatic activity of recombinant human pancreatic GLK (G-6-P dehydrogenase coupled, OD 340 nm)
Settings: comparison in words

In the case of `Cc1cnc(NC(=O)c2cc(OCCc3ccsc3)cc(OC(C)C)c2)s1` [Example II107, reference compound], the “EC50 values, Example 3a compared with Example II107 in WO 03/015774” value was “broadly similar”.
